The source of these data is patent US9376469B2, “Proteolytically resistant hydrogen bond surrogate helices” (New York University, priority 2011, dated 2016).

Data set [1] deals with trypsin. The data set can be described thus: Trypsin digestion assay. The settings on record: 1 ng/μL trypsin, 500 μM peptide, PBS, 4° C. In kind it is in vitro ADME.
Data set [2] has as its system serum proteases. Kind of data set: Serum stability assay. In kind it is in vitro ADME. The following applies: 25% human serum in RPMI, 37° C., after 24 hours, LCMS.

As for `CC(C)C[C@H](NC(=O)[C@H](CC(C)C)NC(=O)[C@H](CCCCN)NC(=O)[C@H](Cc1c[nH]c2ccccc12)NC(=O)[C@H](CC(C)C)NC(=O)[C@H](CC(=O)O)NC(=O)[C@H](CO)NC(=O)[C@H](Cc1ccccc1)NC(=O)CN1CC=CCCC(=O)N[C@@H](CCC(N)=O)C(=O)N[C@@H](CCC(=O)O)C1=O)C(=O)N[C@@H](CO)C(N)=O` [Peptide 2, XQEG*FSDLWKLLS-NH2 (SEQ ID NO: 6)], in data set [1], the “Time to complete degradation by trypsin” value was ≤ 1 h. Besides, the “Stability in human serum, in words” value in data set [2] was “A majority of peptide 2 was degraded”.
